Rce1 inhib = inhibitors of yeast Ras-converting enzyme; Q03530; yeast membranes, quenched prenylated peptide cleavage fluorescence; calls only; 290,000 compounds, 0.27% hits; AID 2563;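 active = fall in fluorescence gain of 50% or more versus controls, with final raw signal at or below 3038400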;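 note: plate controls were neutral control wells for no effect and wells lacking membranes for full effect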
TbMetRS inhib = blocks T. brucei methionyl-tRNA synthetase activity | AID 624268 | 360,000 compounds, 0.4% hits | inhibition, % at 11.9 µM | purified T. brucei MetRS, ATP depletion, Kinase-Glo luminescence;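 active = inhibition above a per-plate cutoff of the control wells' mean inhibition plus 3 SD, cut at about 5.5% in these data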;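 note: 0% = DMSO wells median and 100% = median of wells with control inhibitor compound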
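technique = Kinase-Glo luminescence, ATP depletion format | system = purified MetRS (methionyl-tRNA synthetase) enzyme from Trypanosoma brucei | timing = 15 min preincubation, 2 h reaction, all 25 °C | evaluation = percent inhibition versus plate control medians | dosing = single dose, 11.9 µM final nominal, 0.9% final DMSO | also added = substrates ATP, L-methionine and bulk Escherichia coli tRNA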
Arrestin-AP2 inh = human beta-arrestin and AP2 interaction inhibition. FITC-arrestin peptide / GST-AP2 beads, flow cytometry; AP2 beta2 appendage carries R879A mutation. inhibition, % at 10 µM. 340,000 compounds, 0.31% hits;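 active = inhibition above a set limit, near 3 SD of compounds lacking own fluorescence, cut at about 54% in these data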;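 note: plate controls were DMSO wells for no effect and 5 µM unlabelled arrestin peptide for full effect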
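test system = AP2 appendage R879A on GSH beads | buffer or medium = PBS plus Tween 20 (0.05%) and BSA (0.1%) | incubation = 12 min plus 1 h, RT | detection = bead flow cytometry, FITC channel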
DSG3 Ab inh = human desmoglein-3 autoantibody binding inhibition; P32926; DSG3-coupled beads, scFv-anti-DSG3-GFP binding, flow cytometry; stronger effect = lower value; binding (percent of control), % at 10 µM; 310,000 compounds, 0.48% hits; AID 588358;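 active = binding more than 3 SD below its plate's average and above zero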;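 note: hits lower antibody fragment binding to DSG3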
Yeast UUG start-1 = modulators of start codon recognition fidelity in yeast; AID 602363; hit rate 0.13% among 350,000; activity score, % at 18.7 µM; S. cerevisiae UUG-firefly luciferase reporter, luminescence/redox ratio;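 active = replicate mean at a twofold rise or more, about +100% in these data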;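 note: firefly luciferase made from a UUG start codon reports start codon fidelity; reporter light over untreated wells divided by growth signal over untreated wells; some hits fall short of that in this replicate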
Yeast UUG start-2 = modulators of start codon recognition fidelity in yeast | shares compounds with Yeast UUG start-1 | S. cerevisiae UUG-start firefly luciferase, luminescence, 4 h; 100% means double the DMSO signal | activation, % at 38 µM | 540 tested, under 10 active | AID 652061;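 active = signal increase whose fitted curve reaches an absolute level of 40 at a concentration under 10 µM; inactive = activity opposite to the expected increase, or the rest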
An asterisk follows results filed as active; i = inactive; . = no result given; ! = a repeat was not active. This is a sample that favours compounds with a hit; in the whole collection about 1.2% have one here.

(1) O=C(CN1CCCc2ccccc21)N/N=C/c1ccccc1O
(2) O=C(CN1CCCc2ccccc21)N/N=C/c1ccc(F)cc1F
(3) CCCC(=O)Nc1ccccc1NC(=O)c1ccc(OCC)c(OCC)c1
(4) CCCC(=O)Nc1ccccc1NC(=O)c1ccc(OC(C)=O)cc1
(5) C[C@@H]1CN([C@@H](C)CO)C(=O)c2cc(NS(C)(=O)=O)ccc2O[C@@H](C)CCCCO[C@@H]1CN(C)S(=O)(=O)c1ccccc1
(6) CCC(=O)N(C)C[C@@H]1Oc2cc(C#Cc3ccccc3)ccc2S(=O)(=O)N([C@@H](C)CO)C[C@@H]1C
(7) COCC#Cc1ccc2c(c1)O[C@H](CN(C)Cc1cccnc1)[C@@H](C)CN([C@@H](C)CO)S2(=O)=O
(8) COCC#Cc1ccc2c(c1)O[C@@H](CN(C)Cc1cccnc1)[C@@H](C)CN([C@@H](C)CO)S2(=O)=O

| compound no. | 1 | 2 | 3 | 4 | 5 | 6 | 7 | 8 |
| --- | --- | --- | --- | --- | --- | --- | --- | --- |
| Arrestin-AP2 inh | -26 | 7 | 30 | 10 | . | . | . | . |
| Yeast UUG start-2 | 10 | . | . | 12 | . | i | . | i |
| TbMetRS inhib | 1 | 0 | -1 | -1 | . | . | . | . |
| Yeast UUG start-1 | 67* | -22 | . | 444* | -6 | 183* | -10 | 154* |
| Rce1 inhib | i | i | i | i | . | . | . | . |
| DSG3 Ab inh | 101 | 100 | 105 | 96 | . | . | . | . |

(9) C/C=C/c1ccc2c(c1)O[C@@H](CN(C)Cc1cncnc1)[C@@H](C)CN([C@H](C)CO)S2(=O)=O
(10) CC(C)C#Cc1ccc2c(c1)O[C@@H](CN(C)Cc1ccccn1)[C@@H](C)CN([C@H](C)CO)S2(=O)=O
(11) CCC(=O)N(C)C[C@@H]1Oc2cc(C#Cc3ccccc3)ccc2S(=O)(=O)N([C@H](C)CO)C[C@@H]1C
(12) C[C@@H]1CN([C@H](C)CO)C(=O)c2cc(C3=CCCC3)cnc2O[C@H]1CN(C)S(=O)(=O)c1cn(C)cn1
(13) Cc1ccc(S(=O)(=O)N(C)C[C@@H]2Oc3ccc(NS(=O)(=O)c4ccccc4)cc3C(=O)N([C@H](C)CO)C[C@@H]2C)cc1
(14) C[C@H](O)C#Cc1ccc2c(c1)O[C@H](CN(C)Cc1cncnc1)[C@@H](C)CN([C@@H](C)CO)S2(=O)=O
(15) C[C@@H](O)C#Cc1ccc2c(c1)O[C@@H](CN(C)Cc1cncnc1)[C@@H](C)CN([C@@H](C)CO)S2(=O)=O
(16) C/C=C/c1ccc2c(c1)O[C@@H](CN(C)Cc1cccc(F)c1)[C@@H](C)CN([C@H](C)CO)S2(=O)=O

| compound no. | 9 | 10 | 11 | 12 | 13 | 14 | 15 | 16 |
| --- | --- | --- | --- | --- | --- | --- | --- | --- |
| Arrestin-AP2 inh | . | . | . | . | . | . | . | . |
| Yeast UUG start-2 | i | i | . | . | . | . | i | i |
| TbMetRS inhib | . | . | . | . | . | . | . | . |
| Yeast UUG start-1 | 110* | 61* | 0 | -8 | 15 | 0 | 103* | 105* |
| Rce1 inhib | . | . | . | . | . | . | . | . |
| DSG3 Ab inh | . | . | . | . | . | . | . | . |

Filtered by structure, the compounds so far containing four or more nitrogen atoms
(9) C/C=C/c1ccc2c(c1)O[C@@H](CN(C)Cc1cncnc1)[C@@H](C)CN([C@H](C)CO)S2(=O)=O
(12) C[C@@H]1CN([C@H](C)CO)C(=O)c2cc(C3=CCCC3)cnc2O[C@H]1CN(C)S(=O)(=O)c1cn(C)cn1
(14) C[C@H](O)C#Cc1ccc2c(c1)O[C@H](CN(C)Cc1cncnc1)[C@@H](C)CN([C@@H](C)CO)S2(=O)=O
(15) C[C@@H](O)C#Cc1ccc2c(c1)O[C@@H](CN(C)Cc1cncnc1)[C@@H](C)CN([C@@H](C)CO)S2(=O)=O

| compound no. | 9 | 12 | 14 | 15 |
| --- | --- | --- | --- | --- |
| Arrestin-AP2 inh | . | . | . | . |
| Yeast UUG start-2 | i | . | . | i |
| TbMetRS inhib | . | . | . | . |
| Yeast UUG start-1 | 110* | -8 | 0 | 103* |
| Rce1 inhib | . | . | . | . |
| DSG3 Ab inh | . | . | . | . |

The list continues:
(17) CC(=O)N(C)C[C@@H]1Oc2cc(C#C[C@H](C)O)ccc2S(=O)(=O)N([C@H](C)CO)C[C@@H]1C
(18) CC(=O)N(C)C[C@@H]1Oc2cc(C#C[C@@H](C)O)ccc2S(=O)(=O)N([C@@H](C)CO)C[C@@H]1C
(19) O=C(CNC(=O)c1ccccc1F)N/N=C/c1ccco1
(20) O=C(CNC(=O)c1ccccc1Br)N/N=C/c1ccco1
(21) O=C(C[C@H]1CC[C@H](NC(=O)NC2CCCCC2)[C@@H](CO)O1)NCc1ccc(F)cc1
(22) CC(=O)N1CSCC1C(=O)NNS(=O)(=O)c1ccccc1 (stereo not given)
(23) O=C(c1cccnc1)N1C[C@@H]2[C@H](c3ccccc31)[C@H](CO)N2C(=O)C1CC1
(24) O=C(c1cccnc1)N1C[C@@H]2[C@H](c3ccccc31)[C@@H](CO)N2C(=O)C1CCOCC1

| compound no. | 17 | 18 | 19 | 20 | 21 | 22 | 23 | 24 |
| --- | --- | --- | --- | --- | --- | --- | --- | --- |
| Arrestin-AP2 inh | . | . | -10 | 21 | . | 33 | . | . |
| Yeast UUG start-2 | . | i | . | -11 | . | -6 | i | i |
| TbMetRS inhib | . | . | 0 | 1 | . | -1 | . | . |
| Yeast UUG start-1 | -5 | 121* | -17 | 308* | 3 | 124* | 115* | 117* |
| Rce1 inhib | . | . | i | i | . | i | . | . |
| DSG3 Ab inh | . | . | 98 | 99 | . | 102 | . | . |

(25) O=C(C[C@@H]1C[C@H]2c3cc(NC(=O)Nc4ccccc4)ccc3O[C@H]2[C@H](CO)O1)NC1CCCC1
(26) CN(C)C(=O)C[C@@H]1C[C@H]2c3cc(NC(=O)NC4CCCCC4)ccc3O[C@H]2[C@@H](CO)O1
(27) COc1ccc(Nc2cc(C)nc(NCc3ccccc3)n2)cc1
(28) CCN1CCN(Cc2ccc(NC(=O)c3ccc(C)c(NC(=O)N4CCNC4=O)c3)cc2C(F)(F)F)CC1
(29) O=S(=O)(c1ccccc1F)N1CC[C@H]2[C@H](CO)Nc3ccc(-c4ccccc4F)cc3[C@H]21
(30) COc1nc(-c2ccccc2)ccc1-c1noc(-c2cccs2)n1
(31) COc1nc(C)ccc1-c1noc(-c2cccs2)n1
(32) CC(C)C[C@@H](CNCC(=O)[C@H](Cc1ccccc1)NC(=O)c1[nH]cnc1C(=O)N[C@@H](C)CN)NC(=O)c1nc[nH]c1C(=O)N[C@@H](CC(=O)O)C(=O)O

| compound no. | 25 | 26 | 27 | 28 | 29 | 30 | 31 | 32 |
| --- | --- | --- | --- | --- | --- | --- | --- | --- |
| Arrestin-AP2 inh | . | . | 7 | 9 | . | 0 | 1 | 3 |
| Yeast UUG start-2 | . | . | -7 | 13 | . | . | -24 | . |
| TbMetRS inhib | . | . | 2 | -1 | . | 0 | -1 | 0 |
| Yeast UUG start-1 | 42 | 3 | 624* | 131*! | 5 | -12 | 528* | 0 |
| Rce1 inhib | . | . | i | i | . | i | i | . |
| DSG3 Ab inh | . | . | 104 | 105 | . | . | 101 | 100 |

(33) CC(C)C[C@@H](CN)NC(=O)c1nc[nH]c1C(=O)N[C@@H](Cc1c[nH]c2ccccc12)C(=O)CNC[C@H](C)NC(=O)c1nc[nH]c1C(=O)N[C@@H](CC(=O)O)C(=O)O
(34) C=C[C@H](OC)[C@@H](OC(=O)Nc1ccc(SC)cc1)c1ccc(OCCO)cc1
(35) O=C(C1=C[C@H](c2ccc(C(F)(F)F)cc2)C[C@H](OCCCCO)O1)N1CCCCCCC1
(36) Cc1c(C(=O)C(C)C)n(C)c2ccccc12
(37) Cn1c(C(=O)O)c(C=O)c2ccccc21
(38) Cc1ccc2nc(C(C)(C)C)c(Cc3ccsc3)n2c1
(39) Cc1ccc(-c2nc3ccc(C)cn3c2Cc2ccsc2)cc1
(40) CNC[C@@H]1Oc2c(NC(=O)NC(C)C)cccc2C(=O)N([C@H](C)CO)C[C@@H]1C

| compound no. | 33 | 34 | 35 | 36 | 37 | 38 | 39 | 40 |
| --- | --- | --- | --- | --- | --- | --- | --- | --- |
| Arrestin-AP2 inh | 1 | . | . | 5 | -31 | . | . | . |
| Yeast UUG start-2 | 7 | . | . | 18 | . | 6 | . | . |
| TbMetRS inhib | 0 | . | . | -2 | -1 | 0 | 0 | . |
| Yeast UUG start-1 | 180* | 23 | 7 | 435* | -9 | 153* | -1 | -2 |
| Rce1 inhib | . | . | . | i | i | . | . | . |
| DSG3 Ab inh | 162 | . | . | 107 | 105 | . | . | . |

(41) Cc1cc(N2CCOCC2)nc2ccc(NC(=S)N3CCCCC3C)cc12 (stereo not given)
(42) Cc1cc(N2CCOCC2)nc2ccc(NC(=O)C3CCCCC3)cc12
(43) CN(C)CCCNC(=O)C[C@@H]1CC[C@@H]2[C@H](COc3ccc(NC(=O)c4ccccc4F)cc3C(=O)N2C)O1
(44) CNC[C@@H]1Oc2c(NC(=O)c3cnccn3)cccc2C(=O)N([C@H](C)CO)C[C@@H]1C
(45) Cc1cc(-n2c(C)cc(C(=O)CSc3nncn3C)c2C)no1
(46) Cc1cc(-n2c(C)cc(C(=O)CSc3nncn3C(C)C)c2C)no1
(47) C[C@@H]1CCCCO[C@H](CN(C)Cc2ccc(Cl)c(Cl)c2)[C@H](C)CN([C@@H](C)CO)C(=O)c2cc(NS(=O)(=O)c3ccc(Cl)cc3)ccc2O1

| compound no. | 41 | 42 | 43 | 44 | 45 | 46 | 47 |
| --- | --- | --- | --- | --- | --- | --- | --- |
| Arrestin-AP2 inh | 7 | . | . | . | -3 | 3 | . |
| Yeast UUG start-2 | 0 | . | . | . | . | 4 | . |
| TbMetRS inhib | -1 | 0 | . | . | 0 | -1 | . |
| Yeast UUG start-1 | 143* | -11 | 3 | 0 | -24 | . | 13 |
| Rce1 inhib | i | . | . | . | . | i | . |
| DSG3 Ab inh | 91 | . | . | . | 125 | 102 | . |
